Drawing on ChEMBL document CHEMBL1127699, “Inhibitors of acyl-CoA:cholesterol acyltransferase. 1. Synthesis and hypocholesterolemic activity of dibenz[b,e]oxepin-11-carboxanilides” (J Med Chem, 1994), this text covers IC50 for one compound.

The target in this assay is T1, Acyl-CoA:cholesterol acyltransferase (Oryctolagus cuniculus, UniProt Q95214).
T1 sequence (Q95214 whole entry): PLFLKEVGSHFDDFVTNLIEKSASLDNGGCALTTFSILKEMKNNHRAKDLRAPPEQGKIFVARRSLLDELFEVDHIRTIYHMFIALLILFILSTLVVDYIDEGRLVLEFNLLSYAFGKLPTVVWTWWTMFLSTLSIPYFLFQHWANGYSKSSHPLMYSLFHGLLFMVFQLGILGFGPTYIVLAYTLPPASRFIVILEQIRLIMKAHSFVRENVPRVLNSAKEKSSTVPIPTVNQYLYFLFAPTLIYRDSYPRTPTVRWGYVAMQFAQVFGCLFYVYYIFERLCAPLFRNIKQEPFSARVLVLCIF
The experiment in a line: In vitro inhibitory activity against acyl coenzyme A:cholesterol acyltransferase in liver microsomes isolated from cholesterol-fed rabbits. The arrangement: species or system Microsome. Background: Microsomes from liver hold many membrane-bound enzymes, among them those of drug oxidation.

The structures appear in SMILES notation.

For orientation: IC50 means the concentration needed to halve the response being measured. For `CCCCCCCN(Cc1ccc(CC(C)(C)C)cc1)C(=O)Nc1ccc(F)cc1F` [CL-277082], the 50% inhibitory concentration (IC50) came out at 320 nM.
